From ChEMBL document CHEMBL2176994, “Radiosynthesis of PET radiotracer as a prodrug for imaging group II metabotropic glutamate receptors in vivo” (Bioorg Med Chem Lett, 2012)

Protein sequences, listed by entry. Tags and fused reporters are not part of them. Lines headed by an entry give the natural chain unless they say otherwise; changes in a name come on top.
UniProt P31421: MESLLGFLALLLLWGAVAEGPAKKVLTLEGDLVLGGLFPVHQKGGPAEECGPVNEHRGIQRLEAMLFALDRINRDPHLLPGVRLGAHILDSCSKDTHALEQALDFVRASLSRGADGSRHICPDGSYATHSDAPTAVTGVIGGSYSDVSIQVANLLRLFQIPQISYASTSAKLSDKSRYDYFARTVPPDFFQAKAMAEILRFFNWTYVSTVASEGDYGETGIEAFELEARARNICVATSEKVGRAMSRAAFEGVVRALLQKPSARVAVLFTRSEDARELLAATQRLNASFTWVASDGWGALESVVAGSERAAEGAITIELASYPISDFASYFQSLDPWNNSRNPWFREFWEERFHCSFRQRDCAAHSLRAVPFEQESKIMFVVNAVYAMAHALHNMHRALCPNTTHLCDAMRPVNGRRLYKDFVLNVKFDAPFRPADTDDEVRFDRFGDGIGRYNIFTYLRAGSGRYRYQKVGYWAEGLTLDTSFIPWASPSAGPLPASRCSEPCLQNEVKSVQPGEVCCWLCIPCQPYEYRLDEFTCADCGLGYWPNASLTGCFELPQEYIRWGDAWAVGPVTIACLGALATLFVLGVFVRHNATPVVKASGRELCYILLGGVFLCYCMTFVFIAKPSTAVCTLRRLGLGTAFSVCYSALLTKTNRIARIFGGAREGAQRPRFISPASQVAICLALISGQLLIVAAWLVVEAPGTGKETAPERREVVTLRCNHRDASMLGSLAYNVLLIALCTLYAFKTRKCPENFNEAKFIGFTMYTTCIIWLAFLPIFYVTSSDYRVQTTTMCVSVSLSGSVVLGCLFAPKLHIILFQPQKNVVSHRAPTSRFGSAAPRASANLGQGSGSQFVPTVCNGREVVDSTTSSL

Molecular target: Metabotropic glutamate receptor 2 (Rattus norvegicus, UniProt P31421)
Experiment: Agonist activity at mGLUR2 in rat cerebral cortex assessed as inhibition of forskolin-stimulated cAMP production
Assay type: functional, tissue-based

- EC50: 11.1 nM
Compound: N[C@@]1(C(=O)O)CC[C@H]2[C@H](C(=O)O)[C@H]21
